Measurements reported in US20250288571A1 (Nested Therapeutics, Inc., priority 2024, published 2025).

Experiments:
IPC298 cells = assay: IPC298 Cell Titer Glow assay (CTG)
HCT116 cells = assay: HCT116 Cell Titer Glow assay (CTG)

In the case of `CNS(=O)(=O)Nc1nccc(Cc2cncc(OC(=O)N(C)C)c2C)c1F`, the “CTG % cell viability 100 uM IPC298.2” value (IPC298 cells; 72 hours, 100 uM, percent cells remaining after treatment) is reported as 94.66%, the IC50 (IPC298 cells; read-out: CTG IC50 (nM) Cell Line: IPC298.2, 72 hours) is reported as over 1000 nM and the “CTG % cell viability 1000 uM HCT116.20” value (HCT116 cells; 72 hours, 1000 uM, percent cells remaining after treatment) is reported as 93.19%. It also gave an IC50 (HCT116 cells; read-out: CTG IC50 (nM) Cell Line: HCT116.20, 72 hours) of over 1000 nM.
